We go through one molecule from patent EP1734031A1, “NOVEL 2-(ALPHA-N-PENTANONYL)BENZOETES, THEIR PREPARATION AND USE” (priority 2004, dated 2005).

Each structure is given as a SMILES string.

The nature of this series: in vivo. Conditions: mouse, po, LD50 value, ICR mice, oral gavage, observed 7 days, method of Bliss.

What is called LD50 is the dose expected to kill half of the subjects tested. On to `CCCCC(O)c1ccccc1C(=O)O` (stereo not drawn) [Calcium 2-(α-hydroxypentyl)benzoate], for which the LD50 at 168 h stood at 1520 mg/kg.
